## AlphaSeq binding of Ab-91 heavy chain variants to a spike HR2 peptide

Target peptide (SARS-CoV-2 spike, HR2 region): PDVDLGDISGINAS

Each scFv is VL, the linker GGGGSGGGGSGGGGS, VH, as in the parent Ab-91, and differs from it in the CDRs of the heavy chain only.
VL: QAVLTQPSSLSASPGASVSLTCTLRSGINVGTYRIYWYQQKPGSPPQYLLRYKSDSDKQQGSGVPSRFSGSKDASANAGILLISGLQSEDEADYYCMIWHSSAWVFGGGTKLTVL
VH: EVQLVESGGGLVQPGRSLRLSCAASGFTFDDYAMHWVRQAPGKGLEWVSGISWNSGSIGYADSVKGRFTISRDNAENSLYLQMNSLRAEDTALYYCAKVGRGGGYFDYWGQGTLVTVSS

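Library AAYL51 holds single substitutions and randomly drawn double and triple substitutions in the CDRs. The assay is AlphaSeq: two haploid yeast populations carry antibody and antigen on their surface. The frequency of each diploid, read from paired DNA barcodes, reflects how well the two displayed proteins bind. Each replicate has its own calibration line, from reference interactions of the BCL2 family. The assay was run in three technical replicates.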

The parent's heavy chain CDRs are GFTFDDYAMH, GISWNSGSIGYADSVK, VGRGGGYFDY; each variant's own CDRs replace them letter for letter. Scale: log10 of Kd in nM, estimated from mating counts; low values are strong binders. Replicates are averaged; those with no signal do not enter the mean. "nd" means that the variant was in the library but no mating with the target was seen in that replicate; the authors take this as a sign of poor binding, and no number exists. As a blank, each scFv also met three strains without target: over library AAYL51, 21% of these pairings were detected, typically at 4.54 and seldom below 3.26. Also given: how often the same scFv was detected with the empty control strains, with their mean in brackets.

CDR-H1,CDR-H2,CDR-H3,log10 Kd (nM) by replicate,mean log10 Kd (nM),control signals
GFTFDDYAMR,GISWNQGSIGYAYSVK,VGRGGGYFDY,nd / nd / nd,nd,0/9
HFTFDDYTMH,GISWNSGSIGYADSVK,VSRGGGYFDY,nd / nd / nd,nd,0/9
HFTFDDYAMH,GISWNSGSIGYADSVQ,VGRGGGHFDY,4.22 / nd / 5.03,4.63,2/9 (4.86)
GFTFDDYAMH,GISWNSGSIGYPDSVK,VGRGGGSFDY,nd / nd / nd,nd,0/9
GFTFDDCAMH,GISWNSGSIGYADFVK,VGRNGGYFDY,4.40 / nd / 5.46,4.93,3/9 (4.24)
GFTFDDYAMH,GRSWNCGSFGYADSVK,VGRGGGYFDY,nd / nd / nd,nd,0/9
GFTFDDYAMH,GISWHSGSIMYHDSVK,VGRGGGYFDY,5.77 / 5.49 / nd,5.63,5/9 (4.51)
GETFDDIAMH,GISWNSGSPGYADSVK,VGRGGGYFDY,3.55 / nd / 4.18,3.86,1/9 (5.18)
GFTFDDYAMH,GISWKSGSIGNADSMK,VGRGGGYFDY,nd / nd / nd,nd,0/9
GFTFDDYAMH,GISWISGVIGYADSTK,VGRGGGYFDY,nd / nd / nd,nd,0/9
IFTFDDYAMH,GISWNSGSIGYADSVK,VGRGDGYGDY,nd / nd / nd,nd,2/9 (3.72)
GFTFDDYAMH,GNSWNSGLIGYADSVK,VGRGGGYFDY,5.36 / 4.02 / nd,4.69,4/9 (4.64)
GFTFDDYAMH,GISWNMGSIGYAESVK,VGRGGGYQDY,1.49 / 1.57 / 1.12,1.39,3/9 (5.14)
TFTFDDYAHH,GISWNSGSIGYADSVK,VGRGGGYFDY,nd / nd / nd,nd,1/9 (3.25)
GFTFDDYAMH,FIPWNSGSIGYADIVK,VGRGGGYFDY,3.90 / nd / 5.86,4.88,6/9 (5.26)
GFTFDDYAMH,GISWNNGSIFYADSVV,VGRGGGYFDY,nd / 4.92 / nd,4.92,1/9 (3.87)
GFTFDDYAMH,GISWNSLSIGYDDSVK,NGRGGGYFDY,3.76 / 4.71 / 4.73,4.40,4/9 (5.05)
QFTFDDYAMH,GISWNSGSIGYADVVK,VCRGGGYFDY,2.85 / nd / nd,2.85,2/9 (3.11)
GFTFDDPAMH,GISWNSGSIGLADSVP,VGRGGGYFDY,nd / 4.95 / nd,4.95,2/9 (3.55)
FFTFDDYAMH,GIVWNSGSIGYADSVK,VGRCGGYFDY,nd / nd / nd,nd,1/9 (4.32)
GFQFTDYAMH,GISWNSGSIGYADSVK,VLRGGGYFDY,nd / nd / nd,nd,0/9
GFTFDDYAMH,GISCVSGSCGYADSVK,VGRGGGYFDY,nd / nd / nd,nd,0/9
GFWFDDPAMH,GISWNSGSIGYADSVK,CGRGGGYFDY,3.91 / 4.09 / nd,4.00,3/9 (3.79)
GFTFDDYAMH,GISWNSGSIGYACSVK,VGRCAGYFDY,nd / 5.32 / nd,5.32,1/9 (4.92)
GFTDDDYAMH,GISWNSGSIGYADSVK,VGRMGGYDDY,3.89 / nd / nd,3.89,0/9
GFTFADYAMH,GISWNSGSIGYADSVK,YGRGGPYFDY,0.94 / 0.90 / 0.34,0.73,2/9 (3.56)
GLTFDDYAMH,IISWNHGSIGYADSVK,VGRGGGYFDY,nd / 5.38 / 4.83,5.11,2/9 (5.26)
GPTFDDYAMH,GISTNSGSIGYADSVL,VGRGGGYFDY,4.51 / nd / nd,4.51,2/9 (3.83)
GTTFDDYAHH,GISWNSGSIGYDDSVK,VGRGGGYFDY,4.51 / nd / 4.02,4.27,6/9 (4.19)
GFTFDDYAMH,GISINSTSIGYADSVK,VGRGGVYFDY,4.55 / nd / nd,4.55,0/9
GFWFDDYAMH,GISWNSVSIGYCDSVK,VGRGGGYFDY,3.79 / 4.00 / 3.79,3.86,4/9 (4.99)
GFTFDDYAMP,GISWPSGSIGYADSVK,VGRGGCYFDY,nd / nd / nd,nd,0/9
GFTFDDFAMH,GISWNSGSIGYADSVH,VGRGGGYFDK,1.70 / 0.72 / 0.43,0.95,0/9
GFTFDDYYMH,GISWNSGSIGYAHSVK,VGRGGGYFDY,4.97 / 5.64 / 5.84,5.48,6/9 (5.01)
GFNFDDYAMH,GTSWNSGSIGYADSVK,VGRGGGYPDY,3.61 / 4.15 / nd,3.88,4/9 (3.64)
GFTFDDYAMH,GISQNVGSIGYADSVK,VGRGVGYFDY,4.47 / 3.72 / 4.53,4.24,2/9 (3.62)
GFTFDDGAMH,GISWNSGSIGYADSVK,VGRGGDYFRY,nd / nd / nd,nd,1/9 (4.57)
GFTFDDYAIH,GISWNSSSIGYADSVK,VPRGGGYFDY,nd / nd / nd,nd,1/9 (2.65)
GFTFDDYAMH,GISWNSGSIGYRDSVG,VKRGGGYFDY,nd / 5.03 / nd,5.03,4/9 (4.94)
GFTFDDYAMT,GISWNSGSIGYADSVK,VGEGGGYFDY,nd / 2.62 / nd,2.62,0/9
GFTFDDHAMH,GISWNSGSIGYAPSVK,VGRGGGGFDY,4.46 / nd / nd,4.46,3/9 (3.71)
GFTADDYAMH,GISWNSGSIGTADSVK,VGRGGGYFDT,4.45 / 5.40 / 5.89,5.25,6/9 (4.79)
GFTFDDYAMI,GIPWNSGSIGYADSVK,VGRGFGYFDY,4.73 / nd / nd,4.73,4/9 (4.91)
GFQFDDYAMH,GISWNSGPIGYADSVK,VGRGGGKFDY,3.56 / nd / nd,3.56,1/9 (2.88)
GFTPDDYAQH,GIDWNSGSIGYADSVK,VGRGGGYFDY,nd / nd / nd,nd,2/9 (2.86)
GFTFDDYAMH,GISWNYGSIGYADSVK,VGRVGGPFDY,4.89 / nd / nd,4.89,1/9 (3.09)

7 of these entries, quoted again:

CDR-H1,CDR-H2,CDR-H3,log10 Kd (nM) by replicate,mean log10 Kd (nM),control signals
HFTFDDYAMH,GISWNSGSIGYADSVQ,VGRGGGHFDY,4.22 / nd / 5.03,4.63,2/9 (4.86)
GFTFDDYAMH,GRSWNCGSFGYADSVK,VGRGGGYFDY,nd / nd / nd,nd,0/9
GFTFDDYAMR,GISWNQGSIGYAYSVK,VGRGGGYFDY,nd / nd / nd,nd,0/9
GFTPDDYAQH,GIDWNSGSIGYADSVK,VGRGGGYFDY,nd / nd / nd,nd,2/9 (2.86)
IFTFDDYAMH,GISWNSGSIGYADSVK,VGRGDGYGDY,nd / nd / nd,nd,2/9 (3.72)
GFTFDDYAMH,GISWKSGSIGNADSMK,VGRGGGYFDY,nd / nd / nd,nd,0/9
GFTFDDYYMH,GISWNSGSIGYAHSVK,VGRGGGYFDY,4.97 / 5.64 / 5.84,5.48,6/9 (5.01)

Data: MIT Lincoln Laboratory AlphaSeq set, Engelhart et al. 2022, doi:10.1038/s41597-022-01779-4, as distributed in FLAb.